Results: patent publication US6322789A, “HLA-restricted hepatitis B virus CTL epitopes” (Epimmune, Inc., priority 1995, dated 2001)

Columns and labels:
[1] = system: Jurkat A2.1/K^b target cells; assay: CTL induction from splenocytes of mice primed subcutaneously with purified HBV in IFA (Example II); format: cell-based, A2.1/K^b transgenic mice (effector cells)
[2] = system: Jurkat A2/K^b target cells; assay: In vivo HBc 18-27-specific CTL priming by CTL and T helper epitopes (Example IV); parameters: species or system HLA-A2.1/K^b transgenic mice; conditions: 100 μg subcutaneously, transgenic mice
Method: Animals were primed subcutaneously with 100 μg of 875.23 (T helper epitope) in Complete Freund's Adjuvant (CFA) followed 9 days later (subcutaneously) with […]. Splenocytes were removed 3 weeks later, cultured for 6 days in the presence of LPS-blasts that had been incubated with the CTL epitope (875.15), 100 μg for 2 hrs before being washed and added to the culture as a source of antigen presenting cells. The presence of HBc 18-27 (875.15)-specific CTL was determined using a standard 6 hr […] release assay with Jurkat A2.1/K^b cells as targets.
This example describes experiments which define the relative in vivo HBV-specific CTL priming efficiency of peptides expressing HBV CTL epitopes alone, CTL epitopes mixed with peptides containing T helper epitopes or CTL epitopes physically linked to T helper epitopes.
Nine days later each of the following peptides were injected subcutaneously into two unprimed and two helper-primed mice, 100 μg/mouse in incomplete Freund's adjuvant (IFA).
Three weeks after priming with the CTL epitope, splenocytes were in vitro restimulated with LPS blasts coated with HBc 18-27 (coating was achieved by incubating 30×10^6 LPS blasts with 100 μg of HBc18-27 in one ml of medium; after 1-2 hr at 37° C., the cells were washed). […]

## Phe-Leu-Pro-Ser-Asp-Phe-Phe-Pro-Ser-Val-OH (FLPSDFFPSV) [Peptide 875.15]
[1]
  recognition of truncation peptides by CTL raised against the larger peptide: recognized by the CTL raised against the larger epitopes
[1]; FIGS. 3 and 4
  ability to induce in vitro CTL from splenocytes of HBV-primed mice: clearly able to induce in vitro CTL
[2]
  HBc18-27-specific CTL response: no HBc 18-27-specific CTL response was detected
[2]; listed as CTL peptide
  HBc18-27-specific CTL response: did not induce HBc-specific CTL
